ChEMBL document CHEMBL3272311, “Syntheses and pharmacological activity of substituted imidazolidinethiones and thiomidazolines” (J Med Chem, 1977)

Columns and labels:
[1] = test system: Mus musculus; experiment: Safety index, ratio of LD50 for toxicity in Swiss-Webster mouse to ED50 for CNS depressant activity in ip dosed Swiss-Webster by rotarod assay; format: functional
[2] = Toxicity in ip dosed Swiss-Webster mouse after 24 hrs; format: organism-based; details: in vivo

O=C1NC(=O)C(c2ccccc2)(c2ccccc2)N1 [PHENYTOIN]
Ratio LD50/ED50 [1]: 18.7 | LD50 at 24 h [2]: 200 mg/kg
